The values below come from US6958141B2, “Rhenium and technetium complexes containing a hypoxia-localizing moiety” (Bracco International B.V., priority 1991, dated 2005).

This data set relates to Bovine brain microvessel endothelial cells. Put plainly: Ability to cross endothelial monolayers (permeability index). The data set is classed as in vitro ADME. The settings on record: permeability index from PSe, endothelial monolayer, compared with ^3H-water and ^14C-sucrose, first 10 minutes, 37° C. The source says:
The examples which follow utilize a model of cell permeability based on the studies of Audus and Borchardt (“Bovine Brain Microvessel Endothelial Cell Monolayers as a Model System for the Blood-Brain Barrier”, Ann. New York Accad. Sci., 1988; 9-18). The model consists of a cultured monolayer of bovine brain endothelial cells, which form tight intercellular junctions. Transit of compounds across the monolayer reflects the ability of such compounds to cross the intact cell membrane by passive, active and/or facilitated diffusion mechanisms. The rate of transit is compared with ^3H2O (a highly permeable tracer) and ^14C-sucrose (a non-permeable tracer). […]
This system was placed into a 37° C., 5% CO2 incubator which contains an orbiting tissue culture plate shaker for agitation and 10 μL samples, from both inside (donor) and outside (acceptor) compartments, were taken simultaneously from a set of 4 Anocell inserts. These samples were counted first in a Gamma counter then, after 72 hours, in a scintillation counter with dual channel capabilities. The fraction of radioactivity transported from the donor to the acceptor wells at each time point over the first 10 minutes of the study was calculated. The average percent of radioactivity transported was plotted vs. time and the slope was estimated by linear regression analysis. […]

In the case of “Tc-99m Propylene Amine Oxime [^99mTc-PnAO, reference compound]”, the Pi was 64.4.
